21 compounds from PubChem BioAssay AID588458 (Sanford-Burnham Center for Chemical Genomics, 2011) can be followed below.

Protein sequences, listed by entry. Tags and fused reporters are not part of them. Residues count along the entry.
UniProt P26358, 504-1616 limits assumed: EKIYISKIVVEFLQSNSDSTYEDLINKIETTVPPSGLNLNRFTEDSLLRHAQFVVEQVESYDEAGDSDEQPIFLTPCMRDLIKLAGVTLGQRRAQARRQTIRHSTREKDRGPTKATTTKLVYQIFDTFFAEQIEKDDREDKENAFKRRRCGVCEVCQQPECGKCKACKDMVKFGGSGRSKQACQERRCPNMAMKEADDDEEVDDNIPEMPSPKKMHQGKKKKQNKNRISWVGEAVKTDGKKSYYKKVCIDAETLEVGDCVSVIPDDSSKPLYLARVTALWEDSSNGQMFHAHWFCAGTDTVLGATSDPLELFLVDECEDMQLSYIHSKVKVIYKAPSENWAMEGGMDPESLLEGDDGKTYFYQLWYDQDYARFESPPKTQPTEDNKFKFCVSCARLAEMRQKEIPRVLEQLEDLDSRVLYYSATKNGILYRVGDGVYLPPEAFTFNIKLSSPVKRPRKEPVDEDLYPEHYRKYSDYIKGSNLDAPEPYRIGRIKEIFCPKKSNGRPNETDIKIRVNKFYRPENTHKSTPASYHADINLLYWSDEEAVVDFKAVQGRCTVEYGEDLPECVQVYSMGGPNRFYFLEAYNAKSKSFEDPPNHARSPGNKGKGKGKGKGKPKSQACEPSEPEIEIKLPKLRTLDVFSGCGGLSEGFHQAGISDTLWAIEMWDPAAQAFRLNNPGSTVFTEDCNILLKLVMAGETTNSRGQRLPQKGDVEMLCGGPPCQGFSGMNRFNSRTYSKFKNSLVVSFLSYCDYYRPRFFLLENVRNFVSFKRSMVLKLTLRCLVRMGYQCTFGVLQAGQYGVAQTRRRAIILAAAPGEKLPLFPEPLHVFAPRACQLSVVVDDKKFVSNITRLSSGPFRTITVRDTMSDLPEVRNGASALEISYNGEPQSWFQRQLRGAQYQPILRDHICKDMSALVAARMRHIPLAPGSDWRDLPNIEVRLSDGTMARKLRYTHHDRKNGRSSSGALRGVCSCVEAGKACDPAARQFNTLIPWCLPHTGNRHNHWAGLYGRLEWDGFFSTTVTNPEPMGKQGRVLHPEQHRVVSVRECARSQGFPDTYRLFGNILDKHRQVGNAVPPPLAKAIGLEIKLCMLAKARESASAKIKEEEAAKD

The list shows a part of the results, in another mix than the full data. Activity calls are given as the source filed them. Rule as the data show it: active = inhibition above about 50%; inactive = the rest.

The experiment concerns the target DNA (cytosine-5)-methyltransferase 1 (Homo sapiens) (UniProt P26358). The experiment can be described thus: human DNMT1 methyltransferase inhibitors, primary screen, biochemical, molecular beacon, fluorescence, HinP1I cleavage, uHTS (AID 588458). The conditions noted are these: at 10 µM, active compounds read high.
In the case of `CCN1CCC(Nc2cccc(F)c2)CC1`, the inhibition (reported as % activation of signal) was inactive: 4.66%.
As to `COc1ccc(C(c2nnnn2C2CCCCC2)N2CCC(n3c(=O)[nH]c4ccccc43)CC2)cc1` (stereo unspecified), the inhibition (reported as % activation of signal) was inactive: -5.25%.
Consider `Cc1ccc(NC2(C#N)CCN(Cc3ccccc3)CC2)cc1`, for which the inhibition (reported as % activation of signal) was inactive: -6.14%.
In the case of `Cc1ccc(C(=O)NCC2(N3CCCCC3)CCCCC2)o1`, the inhibition (reported as % activation of signal) was inactive: -0.31%.
For `Fc1ccccc1NC1CCN(Cc2ccccc2)CC1` the value was inactive: 2.74%.
With `O=c1[nH]c2ccccc2n1C1CCN(C(c2ccnc3ccccc23)c2nnnn2C2CCCCC2)CC1` (stereo unspecified), the inhibition (reported as % activation of signal) was inactive: -8.02%.
Regarding `COc1cc(OC)cc(C(=O)NCC2(N3CCCCC3)CCCCC2)c1`, the inhibition (reported as % activation of signal) is inactive: -1.31%.
Regarding `CC(=O)N(c1ccccc1)C1CCNCC1`, the inhibition (reported as % activation of signal) was inactive: 0.94%.
`COc1cccc(C(c2nnnn2C2CCCCC2)N2CCC(n3c(=O)[nH]c4ccccc43)CC2)c1OC` (stereo unspecified): the inhibition (reported as % activation of signal) is inactive: -5.78%.
With `CCC(c1nnnn1C1CCCCC1)N1CCC(n2c(=O)[nH]c3ccccc32)CC1` (stereo unspecified) the figure was inactive: -2.73%.
Turning to `CN1CCC(Nc2ccc(Cl)cc2)CC1`, the inhibition (reported as % activation of signal) is inactive: -0.8%.
Regarding `CCC(CO)(C(=O)OC1CN2CCC1CC2)c1ccccc1` (stereo unspecified), the inhibition (reported as % activation of signal) is inactive: 5.26%.
For the compound `COc1cc(OC)cc(C(=O)NCC2(N3CCOCC3)CCCCC2)c1`, the inhibition (reported as % activation of signal) was inactive: -2.27%.
As for `COc1cccc(C(c2nnnn2C2CCCC2)N2CCC(n3c(=O)[nH]c4ccccc43)CC2)c1OC` (stereo unspecified), the inhibition (reported as % activation of signal) is inactive: -7.24%.
With `COc1cccc(C(=O)N(c2cc(C)cc(C)c2)C2CCN(C(=O)OC(C)(C)C)CC2)c1`, the inhibition (reported as % activation of signal) was inactive: -1.07%.
For `CCCOc1ccc(C(=O)NCC2(N(C)C)CCCCC2)cc1`, the inhibition (reported as % activation of signal) was inactive: -0.41%.
In the case of `O=c1[nH]c2ccccc2n1C1CCN(C(c2cc3ccccc3o2)c2nnnn2C2CCCC2)CC1` (stereo unspecified), the inhibition (reported as % activation of signal) is inactive: -14.1%.
For `CC(C)(C)OC(=O)N1CCC(Nc2ccccc2)CC1`, the inhibition (reported as % activation of signal) was inactive: 10.8%.
Consider `O=C(O)C1(Nc2ccccc2)CCN(Cc2ccccc2)CC1`, for which the inhibition (reported as % activation of signal) was inactive: 4.45%.
For `CCOc1ncccc1C(=O)NCC1(N2CCOCC2)CCCCC1` the value was inactive: -0.01%; for `CN1CCC(Nc2ccc(F)c(Cl)c2)CC1`, inactive: -1.09%.
